What was measured:
[1] = molecular target: purified human Glu-plasminogen (American Diagnostica, 98% Glu-type plasminogen) (human) (UniProt P00747)
[2] = molecular target: purified human Glu-plasminogen (American Diagnostica, 98% Glu-type plasminogen) (human) (UniProt P00747); remark: listed apart in the source

rSK (fusion protein with maltose binding protein linked to the amino terminus of nSK)
lag phase of plasminogen activation (S2251 hydrolysis, absorption at 405 nm, 21° C.) [1]: 150 s
amidolytic kinetic parameters of the SK-PAC on S2251: Km (µM), Kcat (S^-1), kcat/Km (µM^-1 S^-1) [2]: 0.276 µM^-1 S^-1

Source: patent US5854049
